# Like-named read-outs stand apart in the source and are kept apart here.
# Tests used:
# mongrel cats = experiment: Heart-circulation effectiveness in narcotised mongrel cats, intraduodenal administration; conditions: 5 mg/kg intraduodenal, cat
# [1] = tested on: isolated rat aorta preparations; experiment: Spasmolytic effectiveness on isolated rat aorta preparations with noradrenaline- and potassium chloride-induced contractions
# narcotised guinea pigs = experiment: Blood pressure experiments on the narcotised guinea pig (i.v.); conditions: for blood pressure previously: before administration (baseline); for blood pressure afterwards: after administration
# [2] = 0 min (baseline), average ± standard error, 6 animals
structure (smiles),measurement,setting,value
O=[N+]([O-])O[C@H]1CO[C@H]2[C@@H]1OC[C@H]2O[N+](=O)[O-],blood pressure,mongrel cats; [2],104.3 ± 7.7 mm.Hg
same,dp/dt (inotropism),mongrel cats; [2],8800 ± 831 mm.sec.
same,heart frequency,mongrel cats; [2],174.3 ± 9.3 min⁻¹
same,blood pressure,mongrel cats; 10 min after admin.,90.4 ± 12.5 mm.Hg
same,dp/dt (inotropism),mongrel cats; 10 min after admin.,8000 ± 1097 mm.sec.
same,heart frequency,mongrel cats; 10 min after admin.,179.3 ± 7.7 min⁻¹
same,blood pressure Δ,mongrel cats; 10 min versus 0 min,-13.9 mm.Hg
same,dp/dt Δ,mongrel cats; 10 min versus 0 min,-800 mm.sec.
same,blood pressure,mongrel cats; 30 min after admin.,91.2 ± 10.0 mm.Hg
same,dp/dt (inotropism),mongrel cats; 30 min after admin.,7766 ± 807 mm.sec.
same,heart frequency,mongrel cats; 30 min after admin.,177.7 ± 7.7 min⁻¹
same,blood pressure Δ,mongrel cats; 30 min versus 0 min,-13.1 mm.Hg
same,dp/dt Δ,mongrel cats; 30 min versus 0 min,-1133 mm.sec.
same,blood pressure,mongrel cats; 60 min after admin.,94.2 ± 9.2 mm.Hg
same,dp/dt (inotropism),mongrel cats; 60 min after admin.,7633 ± 743 mm.sec.
same,heart frequency,mongrel cats; 60 min after admin.,175.0 ± 8.6 min⁻¹
same,blood pressure Δ,mongrel cats; 60 min versus 0 min,-10.1 mm.Hg
same,dp/dt Δ,mongrel cats; 60 min versus 0 min,-1167 mm.sec.
same,blood pressure,mongrel cats; 120 min after admin.,95.0 ± 9.6 mm.Hg
same,dp/dt (inotropism),mongrel cats; 120 min after admin.,7050 ± 661 mm.sec.
same,heart frequency,mongrel cats; 120 min after admin.,166.7 ± 9.4 min⁻¹
same,blood pressure Δ,mongrel cats; 120 min versus 0 min,-9.3 mm.Hg
same,dp/dt Δ,mongrel cats; 120 min versus 0 min,-1750 mm.sec.
same,IC50,"[1]; read-out: noradrenaline spasm, concentration for 50% inhibition of the spasm (ED50), noradrenaline-induced contraction",1300 nM
same,IC50,"[1]; read-out: potassium chloride spasm, concentration for 50% inhibition of the spasm (ED50), potassium chloride-induced contraction",3100 nM
same,blood pressure previously,narcotised guinea pigs; 0.25 mg/kg i.v.,68.70 ± 2.30 mm.Hg
same,blood pressure afterwards,narcotised guinea pigs; 1.00 mg/kg i.v.,46.30 ± 0.90 mm.Hg
same,blood pressure previously,narcotised guinea pigs; 1.00 mg/kg i.v.,66.00 ± 3.50 mm.Hg
same,blood pressure afterwards,narcotised guinea pigs; 2.50 mg/kg i.v.,37.70 ± 0.90 mm.Hg
same,blood pressure previously,narcotised guinea pigs; 2.50 mg/kg i.v.,66.70 ± 1.70 mm.Hg
